Reference: patent publication US6599878B2, “Superoxygenating blood substitutes based on hemoglobin and dihydropyidine compositions” (priority 1992, dated 2003)
Marks after values point to notes of the source that are not given here.

Columns and labels:
[1] = Properties of the hemoglobin product and colloid solutions; type: physicochemical; conditions: 8% albumin; 10% hemoglobin; Wescor 4400 Colloid Osmometer
Excerpt: Canine hemoglobin (10 gm %) was purified as described in the parent application Ser. No. 07/849,610 filed on Mar. 11, 1992 and subsequently published by Rooney et al., Anesthesiology, 79, 60-72 (1993). A 10 gm % solution of hemoglobin is optimal for use as a resuscitative fluid or blood plasma expander because the 10 gm % concentration corresponds to the mass of red cells in blood (i.e., a hematocrit of 30 vol %) which is optimal for whole body oxygen delivery (calculated from arterial blood oxygen content x cardiac output). […]
Results not presented in Table 1 are that methemoglobin levels were stable at ±0.4% for two weeks at 4° C., and that while hemoglobin dimers and monomers and free heme were not measured, in vitro studies have shown that for hemoglobin concentrations of above about 1 to 2 gm % there is no detectable dissociation of hemoglobin tetramers [see Fanelli et al., Adv. […]
Blood pH, PCO2, PO2 and Na^+, K^+ and Ca^++ concentrations were measured with a Nova Stat Profile 1 analyzer (Waltham, Mass.). Plasma colloid osmotic pressure (COP) was determined before and after hemodilution with a Wescor 4400 Colloid Osmometer (Logan, Utah). […] Hematocrit was determined volumetrically. Hemoglobin (gm %), methemoglobin (%) and percent oxygen saturation were measured with an Instrumentation Laboratories 482 CO-Oximeter (Lexington, Mass.). […]

[2] = Systemic hemodynamics in anesthetized hemodiluted dogs (Example I); type: in vivo, mongrel dogs
Experimental: Twenty-four conditioned, heartworm-free male mongrel dogs (20 to 30 kg) were anesthetized with sodium pentobarbital (30 mg/kg i.v.) followed by an i.v. maintenance dose of 4 mg/kg/hour. After intubation of the trachea with a cuffed endotracheal tube, the dog was mechanically ventilated (Siemens 900D Servoventilator) with 100% oxygen, tidal volumes of 10 to 12 ml/kg and respiration at a rate to achieve normocarbia. These settings were not changed throughout the study. Sodium bicarbonate was not administered. The body temperature of the dog was maintained at 39 C. with water-circulated heating pads.
The dog was placed supine and a polyethylene catheter (PE 200) was inserted into the thoracic aorta via the left femoral artery for measurement of blood pressure. Two small-bore (PE 90) heparin-filled catheters of different lengths were placed in the abdominal aorta via the right femoral artery to collect reference blood samples containing radioactive microspheres for measurement of regional blood flow. Wide-bore (PE 240) catheters were placed in the right femoral vein and in the right carotid artery, for isovolemic exchange transfusion and for the administration of intravenous fluids and collection of arterial blood samples. A 5 french thermodilution catheter was advanced into the pulmonary artery via the right external jugular vein for measurement of cardiac output and right atrial pressure. A Foley catheter was inserted into the bladder for urine collection.
Under fluoroscopy, a 5 french volume-conductance catheter (Mansfield Webster) was inserted via the left carotid artery across the aortic valve to the apex of the left ventricle to measure instantaneous volume.
The animal was then placed on its right side and paralyzed with doxacurium (0.05 mg/kg) to perform a left thoracotomy in the fourth intercostal space. The exposed lung was retracted with gauze. Five cm H2O positive end-expiratory pressure was instituted to prevent atelectasis. A small incision was made in the pericardium near the left atrial appendage. The appendage was protracted and a PE 90 catheter, for microsphere injection, inserted into the ventricle via pressure verification and then pulled back into the atrium. A 3 french micromanometer-tipped pressure catheter (Millar) was then inserted via the appendage into the left ventricle for pressure recording. Both catheters were secured with a ligature around the appendage and distally taped to the animal. The exposed thoracic surface was covered with plastic film to prevent evaporation.
Continuous measurements of heart rate (HR), pulsatile aortic pressure, mean aortic pressure (MAP), left ventricular peak pressure (LVPP), rate-of-change of LVPP (dP/dt), LV end diastolic pressure (LVEDP), LV volume, and right atrial pressure (RAP) were recorded on an analog thermal array recorder (Gould Model TA4000) and stored on a computerized data acquisition system (Halcom, Inc.) Cardiac output (CO) was measured in triplicate using a Spectramed Hemoprol computer. Systemic vascular resistance (SVR) was calculated from (MAP−RAP)÷CO. Systemic vascular hindrance (SVH) was calculated from SVR÷η, where η is the apparent viscosity of blood in centipoise (cp). At high flow rates (shear rates≈200 s^−1) assumed in the aorta, η is 4.0 cp for hematocrit (Hct) of 40 vol % and 2.1 cp for Hct of 20 vol %. Stroke volume was derived from CO÷HR. LV stroke work (LVSW) was calculated from (systolic AoP−LVEDP)×SV×0.0136.
Left ventricular contractility was determined from end-systolic elastance (Ees) using pressure-volume relationships according to the methods of Kass et al., Circulation, 79, 167-178 (1989). Briefly, a catheter with 11 electrodes spaced 1 cm from its distal end was positioned in the ventricle so that its tip was at the apex (verified with fluoroscopy). A weak electrical field (20 KHz, 0.03 mA RMS current) was generated through the LV cavity from the electrodes at the apex and at the aortic valve. […]

[3] = Whole body oxygenation (Example I); type: in vivo, mongrel dogs; conditions: for CaO2: arterial oxygen content
[4] = Regional blood flows by radioactive microspheres (Example I); type: in vivo, mongrel dogs; conditions: vs control and post-SNP infusion
Experimental: Regional blood flows (ml/minute/100 g tissue) were measured with the reference isotope technique using 15μ microspheres as described in detail in Crystal et al., supra. Briefly, prior to injection, microspheres labeled with Sc^46, Sr^85, Sn^113 or Ce^141 were vortexed and sonicated. Approximately 30 microcuries (1×10^6 microspheres) were injected into the left atrium of a dog. Beginning with each microsphere injection, duplicate reference blood samples were collected at a constant rate (6 ml min^−1) for 3 minutes from the femoral PE 90 catheters. Radioactivity of the duplicate samples differed by less than 10%, indicating adequate mixing of the microspheres in the left ventricular output. […]
The tissue and reference samples were weighed and analyzed for radioactivity with a gamma scintillation counter equipped with a multichannel analyzer (Packard Instrument, Downers Grove, Ill.). […] Values for organ blood flows (BForgan) in ml min^−1 were calculated from the equation BForgan=ABF×(MC÷AC)×organ weight (g), where ABF is the rate of arterial reference sampling (ml/minute), MC is the microsphere radioactivity (counts min^−1 g^−1) in the tissue samples, and AC is the total microsphere radioactivity (counts/minute) in the arterial reference samples. […] Skeletal muscle, skin and bone weights were calculated as 40%, 9% and 8% of body weight, respectively.

cyclic GMP [5] = test: Plasma cyclic GMP and arterial pressure before and after hemodilution and SNP (Example II); type: in vivo, dog; conditions: hemodilution alone, n = 5, mean ± sem
Excerpt: To gain more direct evidence that the molecular mechanism governing the hemodynamic pharmacology of hemoglobin-hemodilution involves inactivation or antagonism of NO, we conducted a study on systemic guanosine 3′:5′-cyclic monophosphate (cyclic GMP) production. Cyclic GMP is the end-product of the L-arginine→NO synthase→NO→guanylate cyclase→cyclic GMP pathway.
The effects of administering a nitric oxide donor/cyclic GMP generator (Na nitroprusside) on plasma cyclic GMP levels and arterial blood pressure are shown in Table 9 for control (non-hemodiluted), Ab-HD and oxyHb-HD animals.

cyclic GMP [6] = test: Regional interstitial cGMP by microdialysis; type: in vivo, dog; conditions: during hemodilution alone, n = 4
Excerpt: In a small pilot study, we investigated the possibility that oxyHb would cause selective differences in regional cGMP production (Table 10). An in vivo method that is based on direct microdialysis of the organ tissue was used to examine the regional interstitial production of cGMP. The microdialysis technique uses a small dialysis fiber (250 μm diameter) that is inserted into the tissue and perfused to sample extracellular metabolites.

nitric oxide synthase = test: L-NAME during Ab-HD pilot study; type: in vivo, dog; conditions: Ab-HD alone
Experimental: Approximately 6 mg/kg L-NAME was administered i.v. bolus during Ab-HD. Significant increases in MAP and decreases in plasma cGMP were evident (Table 11).

[7] = anesthetized dogs, hemodilution to hematocrit 50% of baseline

In the case of “AbHD: Human albumin in normal saline purchased as Albuminar-25; 8 gm % used for hemodilution as inert colloid control [reference compound]”, the “COP of colloid solution” value [1] is reported as 39.3±0.9 mm Hg, the “LV Elastance” value [2, 7] is reported as 5.26 mm Hg ml and the “LV dP/dtmax” value [2, 7] is reported as 1753 mm Hg/sec. It also gave an LVPP [2, 7] of 150 mm Hg, an LVSW [2, 7] of 45.3 g m/beat and an MAP [2, 7] of 122 mm Hg. For the same substance, the heart rate [2, 7] was 167 beats/min, the “mean aortic, right atrial and LV end-diastolic (systemic) pressures vs control” value ([2]; dog, in vivo) was “not changed” and the “systemic vascular hindrance vs control” value ([2]; dog, in vivo) was “did not change”. The “cardiac output, % of control” value ([2]; hematocrit 50% of control) was “approximately 177 % of control”, the “systemic vascular resistance, % of control” value ([2]; hematocrit 50% of control) was “about 54 % of control” and the “C(a-v)O2” value ([3]; anesthetized dogs) was 2.7 ml/100 ml. For the same substance, the CvO2 ([3]; anesthetized dogs) was 6.8 ml/100 ml, the CaO2 ([3]; anesthetized dogs) was 10.0 ml/100 ml and the CaO2 ([3]; anesthetized dogs, listed as albumin) was 10.0±0.2 ml/100 ml. The DO2 ([3]; oxygen delivery = CaO2 x CO) was 418 mL/min, the “decrease in arterial-mixed venous oxygen content difference” value ([3]; vs control) was 47% and the “reduction in arterial oxygen content” value ([3]; vs control) was ~50%. For the same substance, the WBVO2 ([3]; whole body oxygen consumption) was 126 mL/min, the O2 extr ([3]; whole body oxygen extraction ratio) was 30% and the “increase in regional blood flows through various organ beds” value [4] was “about 80%”. The MAP (cyclic GMP [5]) was 138 ± 8 mm Hg, the “Plasma cGMP” value (cyclic GMP [5]) was 23.78 ± 1.14 µg/mL and the “Cyclic GMP levels in regional interstitial microdialysate, MU” value (cyclic GMP [6]; MU) was 22.24* μg/ml. For the same substance, the “Cyclic GMP levels in regional interstitial microdialysate, BO” value (cyclic GMP [6]; bone) was 18.12* μg/ml, the “Cyclic GMP levels in regional interstitial microdialysate, BR” value (cyclic GMP [6]; brain) was 24.16* μg/ml and the “Cyclic GMP levels in regional interstitial microdialysate, GI” value (cyclic GMP [6]; gastrointestinal tract) was 18.12* μg/ml. The “Cyclic GMP levels in regional interstitial microdialysate, HE” value (cyclic GMP [6]; heart) was 21.56* μg/ml, the “Cyclic GMP levels in regional interstitial microdialysate, LI” value (cyclic GMP [6]; liver) was 14.24* μg/ml and the “Cyclic GMP levels in regional interstitial microdialysate, LU” value (cyclic GMP [6]; lung) was 22.46* μg/ml. The “Cyclic GMP levels in regional interstitial microdialysate, SP” value (cyclic GMP [6]; spleen) was 22.60* μg/ml, the CO (nitric oxide synthase; n = 3) was 3710 ± 255 mL/min and the MAP (nitric oxide synthase; n = 3) was 126 ± 6 mm Hg. For the same substance, the cGMP (nitric oxide synthase; plasma, n = 3, mean ± sem) was 22.04 ± 1.01 µg/mL.
